Test results taken from ChEMBL document CHEMBL4411321, “Discovery of Potent, Selective, and Orally Bioavailable Estrogen-Related Receptor-γ Inverse Agonists To Restore the Sodium Iodide Symporter Function in Anaplastic Thyroid Cancer” (J Med Chem, 2019).

By UniProt entry, the sequences of proteins in these tests, tags left out. Where a name states a change or a piece, a line headed by the entry shows the natural chain unless it says otherwise.
UniProt Q12809: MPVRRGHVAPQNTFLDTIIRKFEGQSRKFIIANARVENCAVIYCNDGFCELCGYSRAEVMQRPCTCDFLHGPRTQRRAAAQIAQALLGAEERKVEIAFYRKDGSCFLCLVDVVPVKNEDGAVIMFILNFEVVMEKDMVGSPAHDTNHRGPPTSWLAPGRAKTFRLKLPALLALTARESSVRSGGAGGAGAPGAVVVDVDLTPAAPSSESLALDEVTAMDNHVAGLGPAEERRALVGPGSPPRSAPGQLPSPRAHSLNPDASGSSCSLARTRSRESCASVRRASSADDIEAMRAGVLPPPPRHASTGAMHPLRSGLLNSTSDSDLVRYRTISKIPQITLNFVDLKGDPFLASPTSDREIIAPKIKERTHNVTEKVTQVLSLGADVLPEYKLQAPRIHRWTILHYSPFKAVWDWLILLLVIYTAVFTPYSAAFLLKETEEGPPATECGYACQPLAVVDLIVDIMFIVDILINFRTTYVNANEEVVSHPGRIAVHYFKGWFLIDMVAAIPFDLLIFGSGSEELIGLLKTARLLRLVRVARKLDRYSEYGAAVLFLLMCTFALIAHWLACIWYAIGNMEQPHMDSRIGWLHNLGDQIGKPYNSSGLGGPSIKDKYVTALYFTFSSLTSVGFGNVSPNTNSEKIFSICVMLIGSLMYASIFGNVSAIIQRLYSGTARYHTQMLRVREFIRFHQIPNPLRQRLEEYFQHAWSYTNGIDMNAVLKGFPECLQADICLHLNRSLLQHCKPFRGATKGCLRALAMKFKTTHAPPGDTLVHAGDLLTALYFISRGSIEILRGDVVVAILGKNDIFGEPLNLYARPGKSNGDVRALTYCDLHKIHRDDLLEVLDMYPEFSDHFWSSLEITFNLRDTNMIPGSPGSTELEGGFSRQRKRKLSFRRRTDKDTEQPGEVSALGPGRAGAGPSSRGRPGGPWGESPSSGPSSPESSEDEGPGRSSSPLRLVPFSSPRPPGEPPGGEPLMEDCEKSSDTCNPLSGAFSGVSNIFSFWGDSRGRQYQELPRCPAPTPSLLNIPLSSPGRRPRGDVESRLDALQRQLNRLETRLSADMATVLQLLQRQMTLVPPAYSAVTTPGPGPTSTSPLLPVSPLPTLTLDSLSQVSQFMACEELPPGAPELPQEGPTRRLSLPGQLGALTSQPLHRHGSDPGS

Target: Voltage-gated inwardly rectifying potassium channel KCNH2 (Homo sapiens, UniProt Q12809)

## CN(C)CCOc1ccc(/C(=C(/CCCO)c2ccccc2)c2ccc(O)cc2)cc1.Cl
  IC50: > 30 µM
